# Source: patent US7368582B2, “Amidomethyl-substituted 2-(4-sulfonylamino)-3-hydroxy-3,4-dihydro-2H-chromen-6-yl compounds, a process and intermediates for their production, and pharmaceutical compositions containing them” (Solvay Pharmaceuticals GmbH, priority 2003, dated 2008)
# Amino acid sequences for entries named in this document (tags omitted).
# UniProt P22460, whole entry: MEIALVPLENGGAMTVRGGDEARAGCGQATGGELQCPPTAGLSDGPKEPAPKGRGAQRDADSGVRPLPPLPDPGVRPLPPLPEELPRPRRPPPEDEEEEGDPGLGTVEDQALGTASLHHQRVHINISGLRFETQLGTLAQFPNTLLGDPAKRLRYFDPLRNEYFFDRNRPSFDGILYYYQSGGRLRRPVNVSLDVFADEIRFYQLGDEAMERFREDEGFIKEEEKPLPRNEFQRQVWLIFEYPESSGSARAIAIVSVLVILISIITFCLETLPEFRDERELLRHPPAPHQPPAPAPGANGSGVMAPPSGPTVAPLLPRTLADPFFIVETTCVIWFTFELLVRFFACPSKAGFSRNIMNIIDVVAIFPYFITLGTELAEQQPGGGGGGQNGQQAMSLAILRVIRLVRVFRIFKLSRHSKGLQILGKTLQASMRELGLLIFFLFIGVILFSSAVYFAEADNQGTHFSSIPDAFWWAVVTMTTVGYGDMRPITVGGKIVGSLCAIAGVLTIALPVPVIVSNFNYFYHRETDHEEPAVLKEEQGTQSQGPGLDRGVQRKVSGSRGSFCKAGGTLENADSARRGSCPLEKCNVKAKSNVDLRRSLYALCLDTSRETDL
# Target: T1, Kv 1.5-potassium channel (Homo sapiens, UniProt P22460)
# T1 construct: expressed in transfected cells
# Experiment: In-vitro Kv 1.5-potassium channel-blocking effect (Rb+ outflow from CHO cells, atomic absorption spectroscopy)
# Type: cell-based
# Details: CHO cells stably expressing Kv 1.5, read-out: IC50 (Kv1.5-potassium channel-blocking effect, concentration of half-maximum inhibition)
# Method: 1. In-Vitro Investigation of the Kv 1.5-Potassium Channel-Blocking Effect of the Substances
# In this test model, a cell line of egg cells of the Chinese hamster (=“Chinese hamster oocytes”, “CHO”) is used which originates from a single cell and stably expresses the Kv 1.5-channel. By incubation overnight in a nutrient medium containing RbCl or a “loading buffer” (all values in mM: RbCl 5, NaCl 140, CaCl2 2, MgSO4 1, HEPES buffer 10, glucose 5) the aforementioned oocytes are loaded with Rb^+ under the influence of Na^+/K^+-ATPase. […] The extent of the Kv 1.5-potassium channel-blocking effect of the test substances of Formula I is determined by measuring the Rb^+ ion concentration in the liquid surrounding them by means of atomic absorption spectroscopy against a reference standard.
# Chinese hamster oocytes (see above) were cultivated in a known, RbCl-containing nutrient medium for CHO-cells and placed in the sample wells of a 96-sample capacity sample plate (“96 well plate”). […] In each case, 80 μl of the liquid surrounding the oocytes from each sample well was then transferred separately to the sample wells of an analysis sample plate, and the Rb^+ ion concentration in the liquids was determined by atomic absorption spectroscopy. […]
smiles,measurement,value
CCc1ccc(S(=O)(=O)N[C@@H]2c3cc(CC(=O)NCc4ccccc4)ccc3OC(C)(C)[C@H]2O)cc1 [Example 11],IC50,3.2 µM
